The record followed here is ChEMBL document CHEMBL5137076, “SLL-627 Is a Highly Selective and Potent κ Opioid Receptor (KOR) Agonist with an Unexpected Nonreduction in Locomotor Activity” (2022).

Sequences of proteins named here, by UniProt entry; tags and fusion partners are left off.
UniProt P41145, whole entry: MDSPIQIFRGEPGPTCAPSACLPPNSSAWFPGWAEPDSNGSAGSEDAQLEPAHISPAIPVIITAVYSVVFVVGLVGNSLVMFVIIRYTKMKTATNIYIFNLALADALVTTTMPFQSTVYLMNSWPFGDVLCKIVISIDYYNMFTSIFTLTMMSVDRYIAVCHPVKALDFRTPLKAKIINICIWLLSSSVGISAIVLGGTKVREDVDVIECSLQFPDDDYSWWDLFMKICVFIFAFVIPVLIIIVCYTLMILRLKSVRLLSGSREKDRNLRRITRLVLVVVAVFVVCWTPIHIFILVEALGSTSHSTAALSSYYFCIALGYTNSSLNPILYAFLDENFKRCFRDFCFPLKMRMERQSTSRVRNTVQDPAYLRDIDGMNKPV
UniProt P33535, whole entry: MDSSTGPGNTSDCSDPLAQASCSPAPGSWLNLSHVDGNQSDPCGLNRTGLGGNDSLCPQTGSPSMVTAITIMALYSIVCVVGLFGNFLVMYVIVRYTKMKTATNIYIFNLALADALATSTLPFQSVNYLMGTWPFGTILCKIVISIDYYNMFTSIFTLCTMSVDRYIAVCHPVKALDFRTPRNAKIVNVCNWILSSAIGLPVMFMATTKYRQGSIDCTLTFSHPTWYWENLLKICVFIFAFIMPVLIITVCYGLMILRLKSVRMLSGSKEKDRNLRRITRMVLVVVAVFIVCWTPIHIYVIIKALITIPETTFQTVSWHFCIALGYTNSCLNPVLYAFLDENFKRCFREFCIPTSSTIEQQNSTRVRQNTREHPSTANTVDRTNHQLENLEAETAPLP
UniProt P33533, whole entry: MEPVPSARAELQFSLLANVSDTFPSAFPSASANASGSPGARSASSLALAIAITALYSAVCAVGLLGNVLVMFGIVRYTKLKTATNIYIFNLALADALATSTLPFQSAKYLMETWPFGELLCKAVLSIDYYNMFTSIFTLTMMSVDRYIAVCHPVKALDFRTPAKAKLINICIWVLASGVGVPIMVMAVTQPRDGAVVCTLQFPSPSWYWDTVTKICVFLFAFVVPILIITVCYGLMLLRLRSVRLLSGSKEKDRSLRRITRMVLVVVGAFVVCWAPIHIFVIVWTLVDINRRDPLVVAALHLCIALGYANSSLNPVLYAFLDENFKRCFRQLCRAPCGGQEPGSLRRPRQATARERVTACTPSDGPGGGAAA

In experiment [1] the target is T1, Kappa-type opioid receptor (Homo sapiens, UniProt P41145). Nature of the experiment: Displacement of [3H]U69593 from human KOR expressed in CHO cell membranes incubated for 30 mins by liquid scintillation counting method.
The target of experiment [2] is T2, Mu-type opioid receptor (Rattus norvegicus, UniProt P33535). Nature of the experiment: Displacement of [3H]DAMGO from rat MOR expressed in CHO cell membranes incubated for 30 mins by liquid scintillation counting method.
Experiment [3] has as its target T3, Delta-type opioid receptor (Rattus norvegicus, UniProt P33533). Nature of the experiment: Displacement of [3H]DPDPE from rat DOR expressed in CHO cell membranes incubated for 30 mins by liquid scintillation counting method. For orientation: Displacement assays read how much labelled ligand stays bound in the presence of the test substance.
For experiment [4], the target named is T1, Kappa-type opioid receptor. Nature of the experiment: Agonist activity at human KOR expressed in CHO cell membranes after 1 hr by [35S]GTPgammaS binding assay.
Experiment [5] has as its target T2, Mu-type opioid receptor. Nature of the experiment: Agonist activity at rat MOR expressed in CHO cell membranes after 1 hr by [35S]GTPgammaS binding assay. A general note: GTPγS resists hydrolysis and so accumulates on activated G proteins.
The target of experiment [6] is T3, Delta-type opioid receptor. Put plainly: Agonist activity at rat DOR expressed in CHO cell membranes after 1 hr by [35S]GTPgammaS binding assay.

Broadly, the Ki is the equilibrium dissociation constant of an inhibitor or competing ligand from its target. In the case of `COc1ccc2c3c1O[C@H]1[C@@]4(OC)CC[C@@]5(C[C@@]4(C)[C@H](O)c4ccc(C(F)(F)F)cc4)[C@@H](C2)N(CC2CC2)CC[C@]315`, the inhibition constant (Ki) in experiment [1] is 0.051 nM; in experiment [2], 0.024 nM; in experiment [3] it was 74.4 nM.
For orientation: EC50 means the concentration needed to bring the measured effect to its halfway point. A lower EC50 goes with a more potent agent. `COc1cccc(C(=O)[C@]2(C)C[C@@]34CC[C@]2(OC)[C@@H]2Oc5c(OC)ccc6c5[C@@]23CCN(CC2CC2)[C@@H]4C6)c1`: the Ki in experiment [1] was 12.5 nM; in experiment [2], 109 nM; in experiment [3], 48.6 nM. Moreover, the EC50 in experiment [4] came out at 52.1 nM; in experiment [5], 193 nM; in experiment [6], 951 nM.
Turning to `COc1ccc2c3c1O[C@H]1[C@@]4(OC)CC[C@@]5(C[C@@]4(C)CO)[C@@H](C2)N(CC2CC2)CC[C@]315`, the affinity in experiment [3], expressed as Ki, was 125 nM. In experiment [6], this compound returned an EC50 of 154 nM.
Consider `COc1cccc([C@@H](O)[C@]2(C)C[C@@]34CC[C@]2(OC)[C@@H]2Oc5c(OC)ccc6c5[C@@]23CCN(CC2CC2)[C@@H]4C6)c1`, for which the values for the inhibitory constant (Ki) in experiment [1], in experiment [2] and in experiment [3] were 16.8 nM, 38.9 nM and 867 nM, respectively.
Turning to `COc1ccc2c3c1O[C@H]1[C@@]4(OC)CC[C@@]5(C[C@@]4(C)C(=O)c4ccc(C(F)(F)F)cc4)[C@@H](C2)N(CC2CC2)CC[C@]315`, the Ki in experiment [1] came out at 35 nM; in experiment [2], 51.5 nM; in experiment [3], 953 nM. For the same compound, the EC50 was determined as 105 nM in experiment [4], 1730 nM in experiment [5] and 1320 nM in experiment [6].
In the case of `COc1ccc([C@@H](O)[C@]2(C)C[C@@]34CC[C@]2(OC)[C@@H]2Oc5c(OC)ccc6c5[C@@]23CCN(CC2CC2)[C@@H]4C6)cc1`, the Ki in experiment [1] was found to be 6.1 nM; in experiment [2], 3.9 nM; in experiment [3], 178 nM.
The corresponding values for `COc1ccc2c3c1O[C@H]1[C@@]4(OC)CC[C@@]5(C[C@@]4(C)[C@H](O)c4ccc(C)cc4)[C@@H](C2)N(CC2CC2)CC[C@]315` are 13.1 nM, 10.6 nM and > 5000 nM.
